# From ChEMBL document CHEMBL1143275, “Positive allosteric modulators of the metabotropic glutamate receptor subtype 4 (mGluR4). Part II: Challenges in hit-to-lead” (Bioorg Med Chem Lett, 2009)
# By UniProt entry, the sequences of proteins in these tests, tags left out. Where a name states a change or a piece, a line headed by the entry shows the natural chain unless it says otherwise.
# UniProt Q14833: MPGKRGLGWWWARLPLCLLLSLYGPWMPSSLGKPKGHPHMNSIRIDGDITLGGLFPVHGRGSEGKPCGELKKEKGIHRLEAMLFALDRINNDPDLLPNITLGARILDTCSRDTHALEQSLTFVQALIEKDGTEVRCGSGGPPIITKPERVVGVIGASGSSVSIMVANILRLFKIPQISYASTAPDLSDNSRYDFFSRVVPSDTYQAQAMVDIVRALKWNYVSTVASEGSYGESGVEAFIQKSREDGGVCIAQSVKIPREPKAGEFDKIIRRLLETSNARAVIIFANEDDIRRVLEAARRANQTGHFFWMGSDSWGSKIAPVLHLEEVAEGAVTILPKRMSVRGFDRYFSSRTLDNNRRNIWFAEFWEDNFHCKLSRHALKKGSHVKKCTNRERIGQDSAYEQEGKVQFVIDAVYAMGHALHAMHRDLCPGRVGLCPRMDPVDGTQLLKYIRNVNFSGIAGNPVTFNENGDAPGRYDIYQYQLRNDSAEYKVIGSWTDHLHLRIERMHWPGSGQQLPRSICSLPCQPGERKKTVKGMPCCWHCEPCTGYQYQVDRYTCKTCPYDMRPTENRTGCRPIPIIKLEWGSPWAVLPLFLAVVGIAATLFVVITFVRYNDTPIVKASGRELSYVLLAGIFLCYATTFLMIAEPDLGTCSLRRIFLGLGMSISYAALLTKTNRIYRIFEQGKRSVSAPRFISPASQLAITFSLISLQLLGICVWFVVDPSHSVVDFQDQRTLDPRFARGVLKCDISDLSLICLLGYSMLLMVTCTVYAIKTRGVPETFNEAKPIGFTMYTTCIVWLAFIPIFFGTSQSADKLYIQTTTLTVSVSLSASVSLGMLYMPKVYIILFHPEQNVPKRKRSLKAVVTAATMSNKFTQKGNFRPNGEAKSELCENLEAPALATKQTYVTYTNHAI
# Target: Metabotropic glutamate receptor 4 (Homo sapiens, UniProt Q14833)
# Experiment: Activation of human mGluR4 expressed in CHO cells coexpressing Gqi5 protein assessed as fold shifting of glutamate-induced response at 30 uM
# Assay type: cell-based
row,fold change (FC),SMILES
1,6.4,O=C(O)[C@H]1CCCC[C@H]1C(=O)Nc1cc(Cl)cc(Cl)c1
2,11.8,O=C(Nc1ccccc1)[C@]12C[C@H]1/C(=N\O)c1ccccc1O2
